# In the library only some 2.2% were active in any assay of this set; here they are far more common.
# A549 viability: counter-screen for Nrf2 inhibitors: cytotoxicity in A549 cells | A549 ARE-Fluc cells, CellTiter-Fluor viability, 18-24 h | Potency, µM (doses to about 46 µM), for inactives: at the highest dose activity change, negative = cytotoxicity, actives largely listed as inhibitors | 390,000 tested, 0.16% active | AID 504648; also: potency is read from the fitted curve at half-maximal effect; % is scaled to controls: 0 for no effect and ±100 for the full control effect
#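 A549 ARE_Fluc cells in 5% FBS OPTI-MEM were exposed to compounds in concentration-response for 18-24 h at 37 deg C. Viability was read by CellTiter-Fluor fluorescence (Ex 405/Em 525) after 30 min, before the luciferase read.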
# Nrf2 ARE act: activators of Nrf2 (ARE) signaling | AREc32 ARE-luciferase reporter (MCF7-derived line), luminescence, 24 h | Potency, µM (top dose mostly 46.1 µM), for inactives: top-dose activation, usual class: activators | 410,000 tested, 0.31% active; also: potency is read from the fitted curve at half-maximal effect; % of control where 0% means no effect; nearly all actives have a fitted effect of over 65% in size
#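 Each well held 1000 AREc32 cells, which were incubated with compound for 24 hr at 37 deg C after overnight attachment, and ARE reporter activity was quantified by firefly luciferase luminescence.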
# miR-21 reporter: raises the signal of a miR-21 reporter; AID 2288; 340,000 tested, under 10 active; Potency, µM (doses to about 38.3 µM), inactives show at the top dose reporter change, positive = more light; HeLa miR-21 FLuc reporter, luciferase, 48 h; active = well fitted rising curve with a large enough effect; inconclusive = small, poorly fitted or top-dose-only effect; inactive = no such curve, though single readings can be large or run the other way;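 note: % of control where 0% means no effect; miR-21 action dims this reporter so a rising signal means less miR-21 action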
#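 Using DMEM plus 10% FBS, HeLa miR-21-FLuc cells are incubated with test compounds (final up to about 40uM) for 48 hours; firefly luciferase signal is then imaged following reagent-mediated lysis.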
# B2AR arrestin: agonists driving beta-arrestin recruitment to human beta2-adrenergic receptor | 330,000 tested, 0.02% active | P07550 | beta-arrestin recruitment to beta2AR, cell-based reporter | Potency, µM (titrated, usually from 46.1 µM), inactives show at the top dose activation, most hits filed as activators | AID 492947;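 also: potency is read from the fitted curve at half-maximal effect; 0% = DMSO controls and full agonism = EC100 isoproterenol or metaproterenol; nearly all actives have a fitted effect of over 65% in size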
# Nrf2 inh: blocks Nrf2 signaling | A549 ARE-Fluc reporter, luciferase luminescence, 18-24 h | Potency, µM (doses to about 46 µM), without a hit: at the highest dose activity change, negative = inhibition, actives largely listed as inhibitors | 360,000 tested, 2.1% active; also: potency is read from the fitted curve at half-maximal effect; % is scaled to controls: 0 for no effect and ±100 for the full control effect; nearly all actives have a fitted effect of over 60% in size
#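 In this cell-based qHTS, ARE-driven firefly luciferase in A549 cells reports Nrf2 activity; the luminescent signal after BugLite lysis is the measured value, with a prior CellTiter-Fluor read for cell health.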
# Numbers without * were called inactive; ? = inconclusive; nt = no result; [ ] = dose if it differs, or a comment. Unless noted, calls follow the shape of the dose curve; as a rule, active = well fitted curve in the direction sought with a large enough effect; inconclusive = small, poorly fitted or top-dose-only effect, or another doubt; inactive = no such curve, though single readings can be large; an effect the other way counts as inactive or inconclusive.
SMILES,A549 viability,Nrf2 ARE act,miR-21 reporter,B2AR arrestin,Nrf2 inh
Cc1cc(C)n2c(Nc3ccccc3)c(-c3ccc(C)o3)nc2n1,-4.8%,nt,nt,nt,?
CCCOc1ccc(CNC(=O)C(CC)n2nc(C)c3sc4ccccc4c3c2=O)cc1 (centres undefined),-12.9%,0.0%,-37.6%,nt,?
Cc1cccc(-n2c(SCC(=O)Nc3ccccc3C)nc3c(oc4ccccc43)c2=O)c1,-13.7%,-0.2%,13.0%,nt,-13.2%
Cc1cc(C)c(C(=O)/C=C/c2ccc3c(c2)OCO3)c(=O)[nH]1,-14.0%,-0.2%,-0.4%,0.0%,?
Cc1cc(C)c(C(=O)/C=C/c2cccc3ccccc23)c(=O)[nH]1,?,-2.9%,?,-0.4%,18.4µM*
O=C1c2cccc([N+](=O)[O-])c2C(=O)N1CCO,-1.0%,-0.5%,-6.5%,-0.3%,4.7%
O=C1c2cccc3c(Nc4ccccc4Cl)c([N+](=O)[O-])cc(c23)C(=O)N1CCO,nt,7.1%,2.1%,-0.3%,13µM*
COc1ccc(-c2cnc(OC(C)(C)C)nc2OC(C)(C)C)cc1OC,?,-0.2%,-8.1%,-0.2%,23.1µM*
COc1ccc(-c2cncnc2N)cc1OC,nt,-0.9%,nt,nt,nt
CCCCn1c(SCC(=O)Nc2cc(C(F)(F)F)cc(C(F)(F)F)c2)nnc1C(CC)N(C)C (centres undefined),?,6.2%,-11.7%,0.2%,13µM*
CCCCn1c(SCC(=O)Nc2ccc3c(c2)OCCO3)nnc1C(CC)N(C)C (centres undefined),6.2%,0.4%,nt,-0.5%,?
O=C(NCC1CCCO1)C(c1ccncc1)N(Cc1cccs1)C(=O)Cn1nnc(-c2ccc(F)cc2)n1 (centres undefined),-6.1%,-0.4%,-0.6%,0.0%,?
Cc1ccc(-c2nnn(CC(=O)N(Cc3cccs3)C(C(=O)NC3CCCC3)c3ccncc3)n2)cc1 (centres undefined),-16.7%,5.0%,-30.5%,-0.3%,6.51µM*
Cc1ccc(S(=O)(=O)CCSc2n[nH]c(=O)n2-c2ccccc2)cc1,-4.4%,?,10.9%,0.5%,?
Cc1cc(C)c(-n2c(SCCS(=O)(=O)c3ccc(F)cc3)n[nH]c2=O)c(C)c1,0.0%,8.91µM*,?,-1.1%,1.1%

# Full records, looked up by structure. Screens in order: A549 viability	Nrf2 ARE act	miR-21 reporter	B2AR arrestin	Nrf2 inh
# COc1ccc(-c2cncnc2N)cc1OC is listed with nt	-0.9%	nt	nt	nt
# O=C1c2cccc3c(Nc4ccccc4Cl)c([N+](=O)[O-])cc(c23)C(=O)N1CCO is listed with nt	7.1%	2.1%	-0.3%	13µM*
# Cc1ccc(S(=O)(=O)CCSc2n[nH]c(=O)n2-c2ccccc2)cc1 is listed with -4.4%	?	10.9%	0.5%	?
# CCCCn1c(SCC(=O)Nc2cc(C(F)(F)F)cc(C(F)(F)F)c2)nnc1C(CC)N(C)C (centres undefined) is listed with ?	6.2%	-11.7%	0.2%	13µM*

# (continued)
SMILES,A549 viability,Nrf2 ARE act,miR-21 reporter,B2AR arrestin,Nrf2 inh
Cc1cc(C)c(-n2c(SCc3nc4ccccc4s3)n[nH]c2=O)c(C)c1,-21.1%,-0.3%,22.7%,0.3%,16.4µM*
CCCC[C@]12Cc3ccccc3C(O1)c1c(cc(-c3ccccc3)oc1=O)O2,nt,nt,18.3%[7.66 µM],-0.2%[9.22 µM],nt
Cc1cccc(OCCn2c(CCNC(=O)C3CCCCC3)nc3ccccc32)c1,-3.0%,nt,nt,nt,?
C=C1C(=O)O[C@@H]2[C@H]1[C@@H](OC(=O)/C(C)=C/C)C/C(C)=C\C(=O)/C=C(\C)[C@@H]2O,?,?,?,?,20.6µM*
COc1cc(Cl)c(S(=O)(=O)NCCc2c(C)[nH]c3c(C)cccc23)cc1Cl,-0.5%,2.9%,-0.8%,nt,-29.7%
COc1ccc(OC)c(C2=Nn3c(nnc3-c3ccccc3C)SC2)c1,-0.9%,nt,nt,nt,-21.7%
COc1ccc(C(=O)N2CCN(c3nc4ccccc4o3)CC2)cc1OC,1.7%,0.4%,6.4%,-1.0%,18.4µM*
CCOC(=O)c1ccc(NC(=O)C2CCN(C(=O)c3ccc(OC)c(OC)c3)CC2)cc1,-11.7%,6.7%,1.4%,-0.8%,23.1µM*
COc1ccc(C(=O)N2CCN(C(=O)c3ccc(-c4ccccc4)cc3)CC2)cc1OC,1.0%,0.3%,-7.6%,0.0%,13µM*
COC(=O)c1ccc(NC(=O)C2CCN(C(=O)c3cc(OC)c(OC)c(OC)c3)CC2)cc1,-6.2%,-0.5%,1.0%,-0.7%,4.9%
COc1ccc(C(=O)N2CCN(c3ccc(C)cc3)CC2)cc1OC,-3.3%,-0.6%,-14.4%,0.2%,-18.9%
Cc1ccccc1NC(=O)c1c(C)oc2ccc(O)c(CN(C)Cc3ccccc3)c12,0.9%,15.3%,20.3%,nt,19.7%
COc1ccc(C(=O)NCC(=O)OCC(=O)c2ccc3ccccc3c2)cc1,2.2%,nt,nt,nt,?
COC(=O)c1oc(-c2ccc(Cl)cc2)nc1C,-4.1%,4.2%,-12.2%,0.0%,?
COC(=O)c1oc(-c2ccccc2)nc1C,5.7%,12.6µM*,-4.6%,-0.1%,0.3%

# Taken from above:
# miR-21 reporter result of Cc1cc(C)c(C(=O)/C=C/c2ccc3c(c2)OCO3)c(=O)[nH]1 → -0.4%
# Nrf2 inh result of COc1ccc(OC)c(C2=Nn3c(nnc3-c3ccccc3C)SC2)c1 → -21.7%
# miR-21 reporter result of COC(=O)c1oc(-c2ccc(Cl)cc2)nc1C → -12.2%

# Remaining list, next part
SMILES,A549 viability,Nrf2 ARE act,miR-21 reporter,B2AR arrestin,Nrf2 inh
COc1ccc(-c2sc(N)nc2-c2ccccc2)cc1,4.5%,nt,nt,nt,5.2%
CCc1ccc(-c2nnn(CCC(=O)OC)n2)cc1,0.8%,-2.2%,22.2%,0.0%,3.26µM*
COc1ccccc1NS(=O)(=O)c1cccc(NC(=O)c2sc3ccccc3c2Cl)c1,-22.7%,0.1%,21.3%,-0.8%,9.2µM*
COc1ccccc1NS(=O)(=O)c1ccc(NC(=O)c2ccccn2)cc1,-13.2%,1.9%,nt,0.0%,20.6µM*
COc1ccc(NC(=O)c2ccccc2)cc1NS(=O)(=O)c1ccc(F)cc1,14.8%,-0.2%,-4.8%,-0.1%,-9.1%
COc1ccc(NC(=O)c2ccc(-c3ccccc3)cc2)cc1NS(=O)(=O)c1ccc(F)cc1,-4.7%,0.2%,19.1%,-1.0%,14.6µM*
O=C(c1ccc2c(c1)OCCO2)N(Cc1cccnc1)c1nc2c(F)cc(F)cc2s1,-24.0%,3.6%,22.4%,nt,nt
CCCC1(c2ccccc2)NC(=O)N(CC(=O)c2[nH]c(C)c(C(=O)OCC)c2C)C1=O (centres undefined),-16.5%,8.9%,8.7%,0.9%,nt
CCOC(=O)c1c(C)[nH]c(C(=O)CN2C(=O)NC(C)(c3ccc4ccccc4c3)C2=O)c1C (centres undefined),-18.6%,2.3%,5.6%,0.4%,25.9µM*
CCOC(=O)N1CC=C2C(C#N)=C(N)C(C#N)(C#N)[C@H](c3ccccc3OCC)[C@H]2C1,?,8.4%,-8.4%,-0.1%,16.4µM*
N#CC1=C(N)C(C#N)(C#N)[C@H](c2cccnc2)[C@H]2CN(C(=O)OCc3ccccc3)CC=C12,-10.8%,20.9%,-1.8%,10.9%,?
N#CC1=C(N)C(C#N)(C#N)C(c2ccncc2)C2CN(C(=O)OCc3ccccc3)CC=C12 (centres undefined),-16.0%,?,-6.6%,6.0%,23.1µM*
COc1ccc(N2CCN(C(c3ccccc3)c3nnnn3C(C)C)CC2)cc1 (centres undefined),-8.1%,nt,nt,nt,-1.8%
CC(C)(C)OC(=O)N1CCN(c2ccc(CNC(=O)c3ccc(Cl)cc3)cc2)CC1,-27.0%,-0.8%,26.7%,-0.3%,10.3µM*
Cc1ccc(NC(=O)c2nc[nH]c2C(=O)N2CCN(C(=O)OC(C)(C)C)CC2)cc1,4.4%,0.6%,nt,0.3%,2.2%
CC(C)(C)OC(=O)NCc1ccc(CNC(=O)c2ncn(Cc3ccccc3)c2C(=O)NCc2ccc(CNC(=O)OC(C)(C)C)cc2)cc1,7.2%,-0.9%,nt,0.2%,0.5%

# Screens (PubChem BioAssay)
